{"source": "patent US20160022811A1", "about": "(Teva Pharmaceutical Industries Ltd., priority 2013, published 2016)", "origin": "cited, not measured here", "molecules": {"B1": {"name": "Avonex: IFN beta-1a, FDA-approved drug for RRMS (protein, UniProt P01574 22-187, looked up)", "Interferon beta": "MSYNLLGFLQRSSNFQCQKLLWQLNGRLEYCLKDRMNFDIPEEIKQLQQFQKEDAALTIYEMLQNIFAIFRQDSSSTGWNETIVENLLANVYHQINHLKTVLEEKLEKEDFTRGKLMSSLHLKRYYGRILHYLKAKEYSHCAWTIVRVEILRNFYFINRLTGYLRN", "modifications": "interferon beta-1a", "notes": "IFN beta-1a, FDA-approved drug for RRMS"}, "B2": {"name": "Rebif: IFN beta-1a, FDA-approved drug for RRMS (protein, UniProt P01574 22-187, looked up)", "Interferon beta": "MSYNLLGFLQRSSNFQCQKLLWQLNGRLEYCLKDRMNFDIPEEIKQLQQFQKEDAALTIYEMLQNIFAIFRQDSSSTGWNETIVENLLANVYHQINHLKTVLEEKLEKEDFTRGKLMSSLHLKRYYGRILHYLKAKEYSHCAWTIVRVEILRNFYFINRLTGYLRN", "modifications": "interferon beta-1a", "notes": "as for B1"}}, "key": {"[1]": {"tested_on": "relapsing-remitting MS (RRMS)", "conditions": "registration trials, comparison with placebo"}, "MS": {"tested_on": "MS", "conditions": "at one year"}}}
{"molecule": "B1", "values": [{"measurement": "reduction of relapse rate", "setting": "[1]", "result": "about one third"}, {"measurement": "number of new and newly enlarged T2 lesions on MRI scans", "setting": "MS", "result": 2.6}]}
{"molecule": "B2", "values": [{"measurement": "reduction of relapse rate", "setting": "[1]", "result": "about one third"}]}
